## Yeast mating assay 1: variants of the scFv Ab-14

Data: MIT Lincoln Laboratory AlphaSeq set, Engelhart et al. 2022, doi:10.1038/s41597-022-01779-4, as distributed in FLAb.

Antigen: PDVDLGDISGINAS, a 14-residue peptide of the SARS-CoV-2 spike HR2 region.

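The parent was found by panning a naive human phage display library on the peptide. AAYL50 was designed without a model: most single CDR substitutions and a random sample of double and triple ones. AlphaSeq pools MATa yeast showing the antibodies with MATalpha yeast showing the peptide. After mating in shaken culture at 30 °C for 16 h, diploids were selected and their barcode pairs sequenced. A regression on co-assayed BCL2-family reference pairs converts the normalised counts of each replicate to an apparent Kd. Each pool was mated in three replicate cultures.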

Parent: Ab-14, a human scFv built as VH, a 15-residue (Gly4Ser)3 linker, VL. Only the CDRs of the light chain vary.
VH: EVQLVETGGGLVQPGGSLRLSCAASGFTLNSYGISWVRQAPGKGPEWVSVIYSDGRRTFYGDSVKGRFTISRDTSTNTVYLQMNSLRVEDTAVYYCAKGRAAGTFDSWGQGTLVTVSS
VL: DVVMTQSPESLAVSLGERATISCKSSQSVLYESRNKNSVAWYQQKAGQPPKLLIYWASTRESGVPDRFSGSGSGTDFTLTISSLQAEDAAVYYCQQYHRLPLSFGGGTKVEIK

Variants are written as CDR1, CDR2 and CDR3 of the light chain (limits as in the source). Parent: KSSQSVLYESRNKNSVA, WASTRES, QQYHRLPLS.
Scale: log10 of Kd in nM, estimated from mating counts; low values are strong binders.
Averages over replicates are reported, and they cover detected replicates only.
A pair that was not seen in that replicate is written "ND"; this usually means weak binding, but a binder can also be missed.
Empty control strains, which show no peptide, gave a signal in 18% of pairings with library AAYL50; the median was 4.19 and 95% of these signals were weaker than 2.99. No background was subtracted. The control count says in how many pairings with the empty strains this scFv gave a signal, with their mean in brackets.

| CDR-L1 | CDR-L2 | CDR-L3 | log10 Kd (nM) by replicate | mean, log10 nM | control signals |
|---|---|---|---|---|---|
| KSSQSVLYESRNKNSKA | LASTAES | QQYHRLPLS | ND 3.27 ND | 3.27 | 0 of 9 |
| KSSQSVLYESSNKNSVA | WASTRES | QQYMLLPLS | 1.16 1.12 1.49 | 1.25 | 0 of 9 |
| KSSQSVLYESRNKRWVA | WAQTRES | QQYHRLPLS | 5.42 ND ND | 5.42 | 0 of 9 |
| KSSQSVLYESPNKNSVA | WMSTRES | QQYHRSPLS | 4.59 ND ND | 4.59 | 2 of 9 (4.85) |
| KSSQSVLYESRNKNSVA | WGSTRES | QQYHRVPLS | ND ND ND | ND | 0 of 9 |
| KSSQAVLYESRKKNIVA | WASTRES | QQYHRLPLS | ND ND ND | ND | 0 of 9 |
| KSSQSVLYESRNKNSVA | WHSNRES | QQYHRIPLS | ND 2.74 ND | 2.74 | 0 of 9 |
| KSSQLILYESRNKNSVA | WASTRES | QQYHRLPLS | 3.58 3.55 ND | 3.57 | 0 of 9 |
| KSSQSVLYESRNKNSVA | WACTRES | QPYHRLWLS | ND ND ND | ND | 3 of 9 (3.56) |
| KSSQSVLDESSNKNSVA | WASTRES | FQYHRLPLS | 3.70 4.04 5.73 | 4.49 | 4 of 9 (3.92) |
| KSSQSVLYESGNKNSVA | WASARES | QQYHRLPLW | 2.72 2.79 3.24 | 2.92 | 4 of 9 (4.73) |
| KSSQSVLYEERNKNSVA | WASTRES | HQHHRLPLS | 1.97 1.92 2.32 | 2.07 | 0 of 9 |
| KSSQSVLYESRNKNSVA | WASTRMK | QTYHRLPLS | 1.37 1.57 1.82 | 1.59 | 2 of 9 (4.14) |
| KNSQSCLYESRNKNSMA | WASTRES | QQYHRLPLS | ND ND 4.24 | 4.24 | 6 of 9 (4.55) |
| KSSQSWLYESRNKVSVA | WAGTRES | QQYHRLPLS | 1.98 1.99 2.26 | 2.08 | 1 of 9 (4.29) |
| KQEQSVLYEVRNKNSVA | WASTRES | QQYHRLPLS | 2.76 2.80 2.44 | 2.67 | 1 of 9 (5.13) |
| KSSQSVLYESRNKNSVA | WAVTRNS | QQYHRLPLS | ND ND ND | ND | 0 of 9 |
| KSSQSVSYESRNKNSVI | WASTRES | QQYHRLPLS | ND ND ND | ND | 2 of 9 (3.61) |
| KSSQSVLGVSRNKNSVD | WASTRES | QQYHRLPLS | 4.05 2.77 ND | 3.41 | 2 of 9 (3.82) |
| KSSQSVLYESRNKNSVA | WVPTRES | QQYHVLPLS | 5.49 ND ND | 5.49 | 3 of 9 (4.69) |
| KSSQSVLIESRNKYSVA | WASTRES | QQYHRLPLV | 1.45 1.45 1.56 | 1.48 | 1 of 9 (4.33) |
| ESSQSVLYESRNKNSVA | QASTRES | QQYHRQPLS | 2.39 2.78 3.68 | 2.95 | 1 of 9 (5.48) |
| KASQSVLYEHRNKNSGA | WASTRES | QQYHRLPLS | ND ND ND | ND | 0 of 9 |
| KRSQSVLYESRNKNSVA | WASTRES | QHTHRLPLS | 3.66 2.87 ND | 3.26 | 1 of 9 (4.06) |
| YSSQSVLYESRNKNSVA | WASTPES | QQAHRLPLS | ND 3.60 ND | 3.60 | 3 of 9 (4.61) |
| KSSQSVLYESRNKNSVK | WAYTRES | QQYHRLPNS | ND ND ND | ND | 1 of 9 (3.77) |
| KSFQSVLYESRNKNSVA | WASTRES | QQYFRLPLS | 0.71 0.91 0.74 | 0.79 | 2 of 9 (5.12) |
| KSAQSVLYESMNKNSVA | WASTRES | QQYHRLQLS | 0.72 0.84 0.62 | 0.73 | 1 of 9 (3.27) |
| KSSQSVLYEYRNKNSVA | WASTRES | QQNHRLMLS | ND ND ND | ND | 1 of 9 (2.38) |
| KSSQSVLYESRNKNSVA | WASYRPS | QQYHRLPLP | ND 1.23 1.22 | 1.22 | 0 of 9 |
| KITQSVLYESRNKNSVM | WASTRES | QQYHRLPLS | ND ND ND | ND | 0 of 9 |
| KSCQSVLYESRNKNSVA | VASTRES | QQYHRLGLS | ND ND ND | ND | 0 of 9 |
| KSSQSVLYESRGKVSTA | WASTRES | QQYHRLPLS | ND 4.11 5.80 | 4.95 | 5 of 9 (3.63) |
| KSSQSDLYESRNKNSVA | WASTHES | QQYHRTPLS | ND ND ND | ND | 0 of 9 |
| KSSQSMLYESRNKSSVA | WMSTRES | QQYHRLPLS | 2.27 2.02 1.93 | 2.07 | 0 of 9 |
| KSSQSVLWSSMNKNSVA | WASTRES | QQYHRLPLS | 0.75 1.21 0.81 | 0.92 | 0 of 9 |
| ESSQFVLYESRNKNSVA | WASTKES | QQYHRLPLS | ND ND 4.93 | 4.93 | 5 of 9 (4.22) |
| KSSQSVLYETRNKFCVA | WASTRES | QQYHRLPLS | 5.37 ND ND | 5.37 | 0 of 9 |
| KSSQSVLYESRNKNSKA | WASTSES | QQMHRLPLS | 6.03 ND 4.49 | 5.26 | 3 of 9 (4.00) |
| KSSQSVLYRSRNKNSRA | WASTRES | WQYHRLPLS | ND ND ND | ND | 3 of 9 (3.91) |
| KSSQSVLYESRNRNSVA | WASTKHS | QQYHRLPLS | 2.92 2.19 2.81 | 2.64 | 1 of 9 (5.85) |
| KSSQSDLYESRNKNSRA | WASTRES | QQYHRLPLS | ND ND ND | ND | 0 of 9 |
| KSSQSVLYESENKNSVA | WASTNES | QQYHRFPLS | ND 4.60 3.26 | 3.93 | 5 of 9 (3.91) |